# Laboratory results published in publication PMC10803289, “Transport and inhibition mechanism of the human SGLT2–MAP17 glucose transporter” (Nature Structural & Molecular Biology, 2023).
# What was measured:
# hSGLT2 F98A [1] = biological target: T1, hSGLT2 F98A (Homo sapiens, UniProt P31639, F98A); test: SGLT2 inhibitor-binding assay (AS-MS), crude membrane, F98A mutant; design: expressed in transfected cells; host or cells: Expi293 cells, crude membrane fraction; conditions: for Binding (% of WT Bmax): F98A
# T1 sequence (P31639 1-672 F98A): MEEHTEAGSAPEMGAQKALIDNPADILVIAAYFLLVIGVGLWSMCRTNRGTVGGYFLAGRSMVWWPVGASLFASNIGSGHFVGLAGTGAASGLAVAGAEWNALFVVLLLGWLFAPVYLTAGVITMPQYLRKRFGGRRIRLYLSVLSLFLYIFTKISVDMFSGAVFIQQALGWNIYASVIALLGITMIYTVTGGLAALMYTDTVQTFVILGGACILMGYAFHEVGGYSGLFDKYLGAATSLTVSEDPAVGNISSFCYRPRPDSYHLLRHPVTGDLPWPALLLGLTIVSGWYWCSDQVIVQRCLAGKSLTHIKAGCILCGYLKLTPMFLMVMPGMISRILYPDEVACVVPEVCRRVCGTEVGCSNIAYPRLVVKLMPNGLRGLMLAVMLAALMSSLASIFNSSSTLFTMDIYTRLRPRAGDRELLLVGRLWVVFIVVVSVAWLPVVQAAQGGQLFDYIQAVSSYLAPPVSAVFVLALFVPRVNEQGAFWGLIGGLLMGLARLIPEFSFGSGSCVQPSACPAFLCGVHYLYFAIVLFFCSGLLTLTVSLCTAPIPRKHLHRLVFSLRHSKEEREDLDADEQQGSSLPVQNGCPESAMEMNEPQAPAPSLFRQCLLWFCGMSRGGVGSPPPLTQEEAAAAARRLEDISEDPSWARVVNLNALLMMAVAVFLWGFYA
# T1 sequence (Q13113 1-114 partner): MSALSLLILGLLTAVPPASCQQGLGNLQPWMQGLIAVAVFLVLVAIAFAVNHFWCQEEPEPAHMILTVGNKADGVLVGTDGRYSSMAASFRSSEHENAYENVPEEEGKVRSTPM
# Excerpt: (§1) hSGLT2 complementary DNA and human MAP17 cDNA were synthesized and codon-optimized for expression in human cell lines. Both cDNAs were cloned into the pcDNA3.4 vector. The hSGLT2 sequence was fused with an N-terminal signal sequence from human trypsinogen 1, a His10 tag, and sfGFP, followed by a human rhinovirus 3C protease (HRV3C protease) recognition site. Point mutations were introduced into this construct using site-directed mutagenesis. These plasmids were utilized for all experimental procedures conducted in this study.
# To examine the inhibition of binding to the crude membrane, mammalian Expi293 cells were co-transfected with the hMAP17 and hSGLT2 plasmids, as described. The cells were collected and disrupted by sonication in a hypotonic buffer (50 mM HEPES–NaOH (pH 7.5), 10 mM KCl and protease inhibitor cocktail) or Na^+-free hypotonic buffer (50 mM Tris–HCl (pH 7.5), 10 mM KCl and protease inhibitor cocktail). The cell debris were removed by centrifugation (2,000g, 5 min, 4 °C). The membrane fraction was collected by ultracentrifugation (112,000g, 30 min, 4 °C) and stored at −80 °C before use. […] The extract solution from the filter plate was diluted with water containing candesartan as an internal standard, and the SGLT2 inhibitor concentration was quantified via LC–MS/MS.
# Nonspecific binding was measured using the crude membrane of nontransfected Expi293 cells. Specific binding was calculated by subtracting nonspecific binding from the binding of hSGLT2-expressing cells. Specific binding was normalized to hSGLT2 protein expression levels, measured via FSEC. The equilibrium dissociation constant (Kd) and maximum number of binding sites (Bmax) were calculated via nonlinear regression in GraphPad Prism 8.4.3. […]
# The concentrations of the extract solution from the filter plate and of the cell lysate were quantified using a tandem mass spectrometry QTRAP6500 System (SCIEX) coupled with an ACQUITY UPLC system (Waters) using the internal standard method. […]
# hSGLT2 S74A = biological target: T2, hSGLT2 S74A (Homo sapiens, UniProt P31639, S74A); format: cell-based; conditions: S74A mutant
# T2 construct: expressed in transfected cells; host or cells: Expi293 cells, crude membrane fraction
# Excerpt: as §1, with “study. […]” for “study.”
# (§2) Cell lysates were deproteinized by adding acetonitrile containing candesartan as the internal standard. The α-MG concentration was quantified via liquid chromatography–tandem mass spectrometry (LC–MS/MS) using the internal standard method.
# (§3) Cellular protein content was determined using a bicinchoninic acid protein assay kit (Thermo Fisher Scientific). The uptake of α-MG was expressed as the ratio of concentration in the cells (in pmol per mg protein) to concentration in the medium (in pmol μl^−1); this is known as the cell-to-medium ratio (in μl per mg protein).
# (§4) In the inhibition study, the cell-to-medium ratio of cells transfected with the empty vector was used as the background. The specific α-MG uptake was calculated by subtracting this background from the total cell-to-medium ratio and normalized to the uptake achieved without the inhibitor. […]
# hSGLT2 F98A [2] = biological target: T1, hSGLT2 F98A; test: α-MG uptake in HEK293 cells, F98A mutant; format: cell-based; design: expressed in transfected cells
# Excerpt: as §1, with “study. […]” for “study.”
# as §2, §3, §4
smiles,measurement,setting,value
O=C(CCc1ccc(O)cc1)c1c(O)cc(O)cc1O[C@@H]1O[C@H](CO)[C@@H](O)[C@H](O)[C@H]1O [Phlorizin],phlorizin binding (in words),hSGLT2 F98A [1]; F98A single mutant,did not bind
same,Binding (% of WT Bmax),hSGLT2 F98A [1]; Phlorizin 25 nM,0.0000%
same,Binding (% of WT Bmax),hSGLT2 F98A [1]; Phlorizin 50 nM,0.0000%
same,inhibition of α-MG uptake (in words),hSGLT2 S74A,maintained
same,inhibition of α-MG uptake (in words),hSGLT2 F98A [2],greatly impaired
